This note sets out measurements from PubChem BioAssay AID651718 (The Scripps Research Institute Molecular Screening Center, 2012).

The list shows a part of the results, in another mix than the full data. The source made the active and inactive calls. Cut-off read from the data, not from the text of the source: active = inhibition above about 4.5%; inactive = the rest.

This experiment has as its system Methionine sulfoxide reductase A (Bos taurus). Briefly: inhibition of methionine sulfoxide reductase A – biochemical, absorbance, bovine, HTS, primary screen (AID 651718).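 Note: 0% = vehicle wells with enzyme and 100% = reference inhibitor wells.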 As to conditions: purified bovine MsrA, absorbance read-out; at 15.5 µM; active compounds read high.
`O=C(NCC1(N2CCCCC2)CCCCC1)c1ccco1`: the inhibition is inactive: -0.47%. For the compound `CN(C)c1ccc(C(=O)NCC2(N3CCCCC3)CCCCC2)cc1`, the inhibition is inactive: 1.4%. In the case of `Cn1c(=O)[nH]cc(N(CCCl)CCCl)c1=O`, the inhibition was inactive: -0.14%. As for `Cc1ccccc1NC1(C#N)CCN(Cc2ccccc2)CC1`, the figure is inactive: -0.67%; as for `COc1ccc(C(c2nnnn2C2CCCCC2)N2CCC(n3c(=O)[nH]c4ccccc43)CC2)cc1` (stereo not drawn), inactive: -1.27%; as for `CCN1CCC(Nc2cccc(F)c2)CC1`, inactive: -0.31%. On to `CC(C)(C)n1nnnc1C(c1ccnc2ccccc12)N1CCC(n2c(=O)[nH]c3ccccc32)CC1` (stereo not drawn), for which the inhibition is inactive: -0.64%.

Consider `Cc1ccc(C(=O)NCC2(N3CCCCC3)CCCCC2)o1`, for which the inhibition is inactive: 0.4%. For `Fc1ccccc1NC1CCN(Cc2ccccc2)CC1`, the inhibition is inactive: -0.59%. Take `Cc1ccc(NC2(C#N)CCN(Cc3ccccc3)CC2)cc1`: the inhibition is inactive: 0.57%. As for `COc1cccc(C(c2nnnn2C2CCCCC2)N2CCC(n3c(=O)[nH]c4ccccc43)CC2)c1OC` (stereo not drawn), the inhibition was inactive: -0.24%. Consider `CC(=O)N(c1ccccc1)C1CCNCC1`, for which the inhibition was inactive: 0.9%. In the case of `CCC(c1nnnn1C1CCCCC1)N1CCC(n2c(=O)[nH]c3ccccc32)CC1` (stereo not drawn), the inhibition was inactive: 0.88%. Take `COc1cc(OC)cc(C(=O)NCC2(N3CCCCC3)CCCCC2)c1`: the inhibition was inactive: -0.2%. As for `O=c1[nH]c2ccccc2n1C1CCN(C(c2ccnc3ccccc23)c2nnnn2C2CCCCC2)CC1` (stereo not drawn), the figure is inactive: 1.46%; as for `CN1CCC(Nc2ccc(Cl)cc2)CC1`, inactive: 0.5%; as for `COc1cccc(C(=O)N(c2cc(C)cc(C)c2)C2CCN(C(=O)OC(C)(C)C)CC2)c1`, inactive: -0.79%.

With `COc1cc(OC)cc(C(=O)NCC2(N3CCOCC3)CCCCC2)c1`, the inhibition is inactive: 0.52%.

As to `COc1cccc(C(c2nnnn2C2CCCC2)N2CCC(n3c(=O)[nH]c4ccccc43)CC2)c1OC` (stereo not drawn), the inhibition is inactive: -1.21%. As for `CCC(CO)(C(=O)OC1CN2CCC1CC2)c1ccccc1` (stereo not drawn), the inhibition was inactive: 0.25%.

For `CC(C)(C)OC(=O)N1CCC(Nc2ccccc2)CC1`, the inhibition was inactive: 0.42%. For `NN(c1ccccc1)C1CCN(CCc2ccccc2)CC1`, the inhibition was inactive: -0.23%. For the compound `O=C(O)C1(Nc2ccccc2)CCN(Cc2ccccc2)CC1`, the inhibition is inactive: -0.38%.

Regarding `O=c1[nH]c2ccccc2n1C1CCN(C(c2cc3ccccc3o2)c2nnnn2C2CCCC2)CC1` (stereo not drawn), the inhibition is inactive: 2.01%. For `CCCOc1ccc(C(=O)NCC2(N(C)C)CCCCC2)cc1`, the inhibition is inactive: 1.02%. For `CCOc1ncccc1C(=O)NCC1(N2CCOCC2)CCCCC1`, the inhibition is inactive: 0.56%.

For the compound `CN1CCC(Nc2ccc(F)c(Cl)c2)CC1`, the inhibition was inactive: 0.5%. In the case of `O=C(OC1CN2CCC1CC2)C1c2ccccc2C=Cc2ccccc21` (stereo not drawn) it was inactive: -0.56%; in that of `O=c1[nH]c2ccccc2n1C1CCN(C(c2cccs2)c2nnnn2C2CCCC2)CC1` (stereo not drawn), inactive: -0.37%; in that of `CCCCn1nnnc1C(c1cccc(OC)c1OC)N1CCC(n2c(=O)[nH]c3ccccc32)CC1` (stereo not drawn), inactive: -0.39%. As to `CCOC(=O)N1CCC(Nc2ccc(C)cc2)CC1`, the inhibition was inactive: 1.14%.

Consider `COc1cccc(C(c2nnnn2C(C)(C)C)N2CCC(n3c(=O)[nH]c4ccccc43)CC2)c1OC` (stereo not drawn), for which the inhibition was inactive: -0.75%.

As for `N/C(=N\O)c1c(N)no[n+]1[O-]`, the inhibition is inactive: 0.14%.

As for `O=c1[nH]c2ccccc2n1C1CCN(C(c2cccs2)c2nnnn2C2CCCCC2)CC1` (stereo not drawn), the inhibition was inactive: 0.6%.

Regarding `COc1ccc(C(=O)NCC2(N3CCOCC3)CCCCC2)cc1OC`, the inhibition is inactive: 0.4%. As for `O=c1[nH]c2ccccc2n1C1CCN(C(c2ccnc3ccccc23)c2nnnn2C2CCCC2)CC1` (stereo not drawn), the inhibition is inactive: -1.3%. Regarding `CCCCn1nnnc1C(c1ccccc1)N1CCC(n2c(=O)[nH]c3ccccc32)CC1` (stereo not drawn), the inhibition is inactive: -0.29%.

Consider `COc1cc(C(=O)NCC2(N3CCOCC3)CCCCC2)cc(OC)c1C`, for which the inhibition was inactive: -0.2%. In the case of `O=C(NCC1(N2CCOCC2)CCCCC1)c1cc(Br)ccc1Cl` it was inactive: 0.09%. In the case of `CC(C)(C)n1nnnc1C(c1cccc2ccccc12)N1CCC(n2c(=O)[nH]c3ccccc32)CC1` (stereo not drawn), the inhibition was inactive: 0.84%. In the case of `CN(C)C1(CNC(=O)c2cccc(C#N)c2)CCCCC1` it was inactive: -0.35%; in that of `C/C(N)=N\P(=O)(Oc1ccccc1)Oc1ccccc1`, inactive: -0.55%. With `c1ccc(CN2CCC(Nc3ccccc3)CC2)cc1`, the inhibition is inactive: 0.68%. On to `O=c1[nH]c2ccccc2n1C1CCN(C(c2ccccc2)c2nnnn2C2CCCC2)CC1` (stereo not drawn), for which the inhibition was inactive: 2.09%. For the compound `CCCN1CCC(Nc2cc(OC)cc(OC)c2)CC1`, the inhibition is inactive: 0.23%.

In the case of `Cc1cc(N(CCCl)CCCl)ccc1C=O`, the inhibition is inactive: 3.58%. Turning to `N#Cc1ccc(C(=O)NCC2(N3CCCCC3)CCCCC2)cc1`, the inhibition is inactive: -0.1%. For the compound `CC(C)(C)OC(=O)N1CCC(N(C(=O)c2ccccc2)c2ccc(Cl)cc2)CC1`, the inhibition was inactive: -0.29%. As for `O=C(NCC1(N2CCOCC2)CCCCC1)c1cc(=O)[nH]c2ccccc12`, the inhibition was inactive: -0.41%. For the compound `COc1cc(C(=O)NCC2(N3CCCCC3)CCCCC2)ccc1OC(F)F`, the inhibition is inactive: -1.77%. In the case of `COc1ccc(NC2CCN(C(=O)OC(C)(C)C)CC2)cc1`, the inhibition was inactive: 1.49%.

On to `CC(C)c1ccc(C(=O)NCC2(N3CCOCC3)CCCCC2)cc1`, for which the inhibition was inactive: 0.14%. As for `CN1CCN(CCOC(=O)C(O)(c2ccccc2)c2ccccc2)CC1`, the figure is inactive: -0.96%. In the case of `CCCCn1nnnc1C(c1cccc2ccccc12)N1CCC(n2c(=O)[nH]c3ccccc32)CC1` (stereo not drawn), the inhibition was inactive: 1.28%. Consider `O=C(NCC1(N2CCCCC2)CCCCC1)c1cccc(C(F)(F)F)c1`, for which the inhibition was inactive: -0.04%. Consider `CCN1CCC(Nc2ccc(Cl)cc2)CC1`, for which the inhibition was inactive: 0.41%. As for `O=c1[nH]c2ccccc2n1C1CCN(C(c2ccccc2OC(F)(F)F)c2nnnn2C2CCCC2)CC1` (stereo not drawn), the figure is inactive: 1.18%; as for `N#CC1(Nc2ccccc2)CCN(CCc2ccccc2)CC1`, inactive: -0.25%. In the case of `O=C(NCC1(N2CCCCC2)CCCCC1)c1cccc([N+](=O)[O-])c1` it was inactive: 0%; in that of `CSc1ccc(C(=O)NCC2(N3CCOCC3)CCCCC2)cc1`, inactive: 1.09%. In the case of `CC(C)(C)n1nnnc1C(c1ccccc1OC(F)(F)F)N1CCC(n2c(=O)[nH]c3ccccc32)CC1` (stereo not drawn) it was inactive: -0.73%. Consider `O=C(NCC1(N2CCCCC2)CCCCC1)c1ccc(OC(F)F)cc1`, for which the inhibition is inactive: 0.45%. For `COc1ccc(C(c2nnnn2C2CCCC2)N2CCC(n3c(=O)[nH]c4ccccc43)CC2)cc1` (stereo not drawn), the inhibition was inactive: -0.49%. Turning to `Cc1ccc(C(=O)NCC2(N(C)C)CCCCC2)o1`, the inhibition is inactive: -1.33%.

With `CCCOc1ccc(C(=O)NCC2(N(C)C)CCCCC2)cc1OC`, the inhibition is inactive: -0.97%.

As for `CN1CCC(Nc2cccc(F)c2)CC1`, the inhibition was inactive: -1.2%. In the case of `O=C(NCC1(N2CCCCC2)CCCCC1)c1cncc(Br)c1`, the inhibition is inactive: -1.18%. With `COc1cc(OC)c(C(=O)NCC2(N(C)C)CCCCC2)cc1OC`, the inhibition was inactive: 0.79%.

On to `O=C(NCC1(N2CCOCC2)CCCCC1)c1cc(F)c(F)cc1Cl`, for which the inhibition is inactive: 0.85%. Consider `CCC(c1nnnn1C(C)(C)C)N1CCC(n2c(=O)[nH]c3ccccc32)CC1` (stereo not drawn), for which the inhibition was inactive: -0.1%. Turning to `CCCCn1nnnc1C(c1ccnc2ccccc12)N1CCC(n2c(=O)[nH]c3ccccc32)CC1` (stereo not drawn), the inhibition is inactive: -0.19%.

As to `CC(C)c1ccc(NC2CCN(C(=O)OC(C)(C)C)CC2)cc1`, the inhibition was inactive: -1.05%. On to `COc1ccc(CN(CCCl)CCCl)cc1Cl`, for which the inhibition is inactive: 1.21%. In the case of `CN(C)c1cccc(C(=O)NCC2(N3CCCCC3)CCCCC2)c1`, the inhibition is inactive: -0.79%. In the case of `O=C(NCC1(N2CCCCC2)CCCCC1)c1ccc(Cl)s1` it was inactive: 0.72%; in that of `N#CC1(Nc2ccccc2)CCN(Cc2ccccc2)CC1`, inactive: -1.81%. Consider `O=c1[nH]c2ccccc2n1C1CCN(C(c2cc3ccccc3o2)c2nnnn2C2CCCCC2)CC1` (stereo not drawn), for which the inhibition was inactive: 1.46%.

With `O=C(OC1CN2CCC1CC2)C1c2ccccc2Oc2ccccc21` (stereo not drawn), the inhibition was inactive: 0.1%. Consider `COc1ccc(Cl)cc1C(=O)NCC1(N2CCOCC2)CCCCC1`, for which the inhibition was inactive: -0.98%. For the compound `CCOC(=O)N1CCC(Nc2ccc(OC)cc2)CC1`, the inhibition is inactive: 0%.

Turning to `CCCCn1nnnc1C(c1ccc(OC)cc1)N1CCC(n2c(=O)[nH]c3ccccc32)CC1` (stereo not drawn), the inhibition is inactive: 0.81%.

In the case of `O=C(NCC1(N2CCCCC2)CCCCC1)c1ccc(Cl)nc1`, the inhibition was inactive: -0.33%.

Take `O=c1[nH]c2ccccc2n1C1CCN(C(c2ccccc2OC(F)(F)F)c2nnnn2C2CCCCC2)CC1` (stereo not drawn): the inhibition was inactive: 0.09%. As for `Cc1cc(C)cc(N(C(=O)c2ccccc2)C2CCN(C(=O)OC(C)(C)C)CC2)c1`, the figure is inactive: -0.59%. As for `O=C(NCC1(N2CCOCC2)CCCCC1)c1cc2ccccc2o1`, the inhibition is inactive: 0.25%. For `CSc1ccccc1C(=O)NCC1(N2CCCCC2)CCCCC1`, the inhibition is inactive: -0.89%. As to `Cc1cccc(NC2(C#N)CCN(Cc3ccccc3)CC2)c1`, the inhibition is inactive: 0.69%. In the case of `COc1ccc(C(=O)NCC2(N3CCCCC3)CCCCC2)cc1`, the inhibition is inactive: 0.73%.

In the case of `COc1ccc(C(=O)NCC2(N3CCCCC3)CCCCC2)c(OC)c1OC`, the inhibition was inactive: 1.77%. Consider `CC(C)(C)OC(=O)N1CCC(N(C(=O)c2ccccc2)c2ccc(F)cc2)CC1`, for which the inhibition was inactive: -0.79%.

As to `CCC(c1nnnn1C1CCCC1)N1CCC(n2c(=O)[nH]c3ccccc32)CC1` (stereo not drawn), the inhibition was inactive: 0.57%. On to `O=C(NCC1(N2CCCCC2)CCCCC1)c1ccc(=O)[nH]c1`, for which the inhibition is inactive: 0.35%. With `CCCCn1nnnc1C(CC)N1CCC(n2c(=O)[nH]c3ccccc32)CC1` (stereo not drawn), the inhibition is inactive: 0.99%. On to `O=C(NCC1(N2CCCCC2)CCCCC1)c1cccs1`, for which the inhibition was inactive: -0.88%. For the compound `CCCCn1nnnc1C(c1cccs1)N1CCC(n2c(=O)[nH]c3ccccc32)CC1` (stereo not drawn), the inhibition was inactive: -0.48%.

`CCOC(=O)N1CCC(Nc2cccc(C)c2)CC1`: the inhibition is inactive: 0.05%.

For `COc1cc(C(=O)NCC2(N(C)C)CCCCC2)ccc1OC(F)F`, the inhibition was inactive: 0.75%. In the case of `O=c1[nH]c2ccccc2n1C1CCN(C(c2cccc3ccccc23)c2nnnn2C2CCCC2)CC1` (stereo not drawn) it was inactive: -0.37%.

Regarding `O=c1[nH]c2ccccc2n1C1CCN(C(c2ccccc2)c2nnnn2C2CCCCC2)CC1` (stereo not drawn), the inhibition is inactive: 0.33%. As for `CCCCOc1ccc(C(=O)NCC2(N3CCOCC3)CCCCC2)cc1`, the figure is inactive: 0.34%.

Turning to `CCCCn1nnnc1C(c1cc2ccccc2o1)N1CCC(n2c(=O)[nH]c3ccccc32)CC1` (stereo not drawn), the inhibition was inactive: -2.09%.

Consider `O=P1(N(CCCl)CCCl)SCCCS1`, for which the inhibition is inactive: -0.76%. Regarding `O=C(NCC1(N2CCCCC2)CCCCC1)c1ccc(F)cc1`, the inhibition is inactive: -0.2%. As to `CCOC(=O)N1CCC(Nc2ccc(F)cc2)CC1`, the inhibition is inactive: 1.93%. For `COc1ccc(NC2CCN(CCc3ccccc3)CC2)c(OC)c1`, the inhibition is inactive: -0.94%. Turning to `CC(C)(C)n1nnnc1C(c1ccccc1)N1CCC(n2c(=O)[nH]c3ccccc32)CC1` (stereo not drawn), the inhibition was inactive: -0.29%. As for `O=C1CCN(Cc2ccccc2)CC1`, the inhibition was inactive: -0.09%. As to `CCOc1ccc(C)cc1CN(CCCl)CCCl`, the inhibition was inactive: 0.18%.

The term inhibition denotes the change of the read-out against control, counted positive when it falls.
